Assay results from patent publication US9833431B2, “Pharmaceutical combinations for the treatment of cancer” (Pitney Pharmaceuticals Pty Limited, priority 2013, dated 2017).

What was measured:
A2780 = assay: SRB cytotoxicity / proliferation assay, A2780 cells; details: 72 h
HT-29 = type: cell-based; details: HT29 cells; MPL 5 μM; 5-FU 20 μM, gemcitabine 0.5 μM, oxaliplatin 1 μM; 72 h; FIG. 27
Experimental: All cell lines described herein were purchased from ATCC. […] Control cultures were treated with ethanol alone.

HOSE = assay: SRB cytotoxicity assay, HOSE non-malignant control cells; details: 72 h, concentrations as stated in the figure

## CO[C@@]12[C@H](COC(N)=O)C3=C(C(=O)C(C)=C(N)C3=O)N1C[C@@H]1N[C@@H]12 [mitomycin C]
A2780; A2780 cells, concentrations as stated at the place or in the figure
  Interaction of the drug with MPL (synergy), in words: effective enhancement

## CC(C)C[C@H](NC(=O)[C@H](Cc1ccccc1)NC(=O)c1cnccn1)B(O)O [Bortezomib]
A2780; A2780 Ovarian, 5 μM MPL + drug, Table 7
  Synergistic cytotoxicity between MPL and combined drug: ✓^2

## O=c1[nH]cc(F)c(=O)[nH]1 [Fluorouracil]
HT-29
  Interaction of the drug(s) with MPL (synergy), in words: synergistic cytotoxicity

## O=C1[O][Pt]2([NH][C@@H]3CCCC[C@H]3[NH]2)[O]C1=O [Oxaliplatin]
HOSE
  Interaction of the drug with MPL (synergy), in words: relatively small yet synergistic interaction
